Data from ChEMBL document CHEMBL2375349, “Discovery of subtype selective muscarinic receptor antagonists as alternatives to atropine using in silico pharmacophore modeling and virtual screening methods” (2013).

Key:
[1] = target: T1, Muscarinic acetylcholine receptor M1 and M3 (Homo sapiens) (UniProt P20309+P11229); assay: Selectivity ratio of Ki for human muscarinic M3 receptor to Ki for human muscarinic M1 receptor
[2] = target: T1, Muscarinic acetylcholine receptor M1 and M3 (Homo sapiens); assay: Selectivity ratio of Ki for human muscarinic M1 receptor to Ki for human muscarinic M3 receptor

SMILES	Ratio Ki [1]	Ratio Ki [2]
CCN(CC)CCOC(=O)C(O)(c1cccs1)C1CCCCC1 (centres undefined)	4.95	0.202
CCN(CC)CCOC(=O)C(O)(c1ccccc1)c1c(C)cccc1C (centres undefined)	1.44	0.693
